## Apparent affinities of Ab-14 variants for a coronavirus HR2 peptide

Data: MIT Lincoln Laboratory AlphaSeq set, Li et al. 2023, doi:10.1038/s41467-023-39022-2, as distributed in FLAb.

Target: peptide PDVDLGDISGINAS, taken from heptad repeat 2 (HR2) of SARS-CoV-2 spike.

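The starting antibody came from a phage panning campaign against this peptide. Designed CDR sequences, proposed from the first random library and measured here. Their group label is 14H_En_Gibbs (En: ensemble of fine-tuned language models; Gibbs: Gibbs sampling). Affinity was read by AlphaSeq, a pooled yeast mating assay with surface-displayed partners. After mating in shaken culture at 30 °C for 16 h, diploids were selected and their barcode pairs sequenced. A regression on co-assayed BCL2-family reference pairs converts the normalised counts of each replicate to an apparent Kd. Each pool was mated in six replicate cultures.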

Each scFv is VH, the linker GGGGSGGGGSGGGGS, VL, as in the parent Ab-14, and differs from it in the CDRs of the heavy chain only.
VH: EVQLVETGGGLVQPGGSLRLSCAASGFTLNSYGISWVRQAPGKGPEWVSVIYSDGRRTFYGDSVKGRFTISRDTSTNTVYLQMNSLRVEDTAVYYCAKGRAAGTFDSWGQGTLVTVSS
VL: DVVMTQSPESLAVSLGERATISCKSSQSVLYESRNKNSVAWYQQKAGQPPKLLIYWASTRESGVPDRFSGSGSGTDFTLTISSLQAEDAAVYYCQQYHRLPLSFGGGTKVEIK

Variants are written as CDR1, CDR2 and CDR3 of the heavy chain (limits as in the source). Parent: GFTLNSYGIS, VIYSDGRRTFYGDSVK, GRAAGTFDS.
Affinities are written as log10 Kd with Kd in nM; a lower number is a better binder.
An entry "ND" has no value in the source: the pair was not observed among the diploids in that replicate. This suggests poor binding but is not conclusive.

CDR-H1 | CDR-H2 | CDR-H3 | log10 Kd (nM) by replicate | empty controls
GFSLDEYGIS | VIYADGLRTFYQDQVK | GQLAGSLYT | ND ND ND ND ND ND | 0/18
GFDLDEYGIS | VIYADGRRSAYHDSFK | GQLGKVSFV | ND ND ND ND ND ND | 0/18
GFDIKEYGIS | VIYADGQRTAYKPTVK | GNHTGLVFI | ND ND ND ND ND ND | 0/18
GFDLNEYGIS | VIYADGVRTAYEEKVK | GVITNLIWL | ND ND ND ND ND ND | 0/18
GFDLGEYGIS | VIYADGSRKAYATNVK | GGSGYKDGV | ND ND ND ND ND ND | 0/18
EFEIQDYGIS | VIYADGSRTAYAESVK | GNMGGTFST | ND ND ND ND ND ND | 0/18
GFGLMDYGIS | VIYADGMRRSYANSVK | GKHAGIFDF | ND ND ND ND ND ND | 0/18
GFDLAEYGIS | VIYADGMRVSYNQNVK | GTGGGSFNF | ND ND ND ND ND ND | 0/18
GFDLMEYGIS | VIYADGMRQAYANKVK | GGITDSGLI | ND ND ND ND ND ND | 0/18
GFVLSEYGIS | VIYADGNRTFYAPNVK | GQFNVVLNV | ND ND ND ND ND ND | 0/18
GFDIEEFGIS | VIYADGIQTAYAQKVK | GTIAGTFVD | ND ND ND ND ND ND | 0/18
GFDLEKYGIS | VIYADGRRSVYADDVK | GMLGATNGY | ND ND ND ND ND ND | 0/18
GFNLDEFGIS | VIYADGSRQFYVESFK | GQFGGNIVN | ND ND ND ND ND ND | 0/18
GFDLQEYGIS | VIYADGKRTKVTDNVK | GEVTGTAFT | ND ND ND 1.87 ND ND | 0/18
GFDINEYGIS | VIYADGMRTAYVQQVK | GQNLGDVEV | ND 2.37 ND ND ND ND | 0/18
GFKLNEYGIS | VIYADGQRKSYADSFK | GRWTGQVIV | 0.94 1.08 1.97 0.86 0.10 0.98 | 0/18
GFALNEYGIS | VIYADGFRRSYQDKVK | GHIAGEFSV | ND ND ND ND ND ND | 0/18
GFTLGEYGIS | VIYADGERTMYSNAVK | GNMAGTFSF | -0.92 -0.93 -1.27 -1.17 -1.21 -1.09 | 0/18
GMKLQDYGIS | VIYADGVRTAFKESVK | GQIAGTFNS | 0.50 0.96 1.02 0.67 1.07 0.57 | 0/18
GFYLDEYGIS | VIYADGQRKVYANNVK | GNFGGLQDY | ND ND ND ND ND ND | 0/18
GFQLNEYGIS | VIYADGKRSEYQDSVK | GGINSSFSL | ND ND ND ND ND ND | 0/18
GNNLDEYGIS | VIYADGQRTAYAQSVK | GETGDNAMT | ND ND ND ND ND ND | 1/18 (0.70)
GMDLEEYGIS | VIYADGVRARYANDVK | GQVDAILVV | ND ND ND ND ND ND | 0/18
GFNLDEFGIS | VIYADGMRTAYSQDVK | GQHVEFTVG | ND ND ND ND ND ND | 0/18
GDGLQEYGIS | VIYADGFRSSYSNDVK | GTNAGIFMQ | ND ND ND ND ND ND | 0/18
GFEIQEYGIS | VIYADGRRTAYAESVK | GTLGGTLST | ND 1.19 ND 1.79 0.41 0.59 | 0/18
GFDLDQYGIS | VIYADGIRSYYADSVK | GHEGGILYV | ND ND ND ND ND ND | 0/18
GVDIDEYGIS | VIYADGIRTFYIDRVK | GNLGGQFDM | ND ND ND ND ND ND | 0/18
GFQLNEYGIS | VIYADGMRSSYQDSVK | GSNSSSFDV | ND ND ND 2.08 ND ND | 1/18 (2.16)
GFDLDEYGIS | VIYADGTRSGYAANVK | GEAAGITMF | ND ND ND ND ND ND | 0/18
GFNLDEYGIS | VIYADGVRTSYTDQVK | GVETGAVLE | ND ND ND ND ND ND | 0/18
GFSLNEYGIS | VIYADGQRKSYADNFK | GYQGSRVSL | ND ND ND ND ND ND | 0/18
GFGLDEYGIS | VIYADGKRAAYKNSVK | GGVGVGGLH | ND ND ND ND ND ND | 0/18
GENLSEYGIS | VIYADGKKTAYSNAVK | GAVGGIFVV | 2.42 1.37 1.97 1.16 2.98 1.24 | 1/18 (3.03)
DFNLNEYGIS | VIYADGERASYLDKVK | GQISGTFDT | 0.43 1.01 0.14 0.68 0.40 0.72 | 2/18 (2.00)
GFNLDEYGIS | VIYADGMRTAFGDNVK | GTNFGFTVF | ND ND ND ND ND ND | 0/18
GDDLEAYGIS | VIYADGMRTYYDDAVK | GKVNGTFTD | ND ND ND ND ND ND | 0/18
EFDLEEFGVS | VIYADGKRTAYSDNVK | GHEGAHFDV | ND ND ND ND ND ND | 0/18
GFDLDEYGIS | VIYADGHRRAYADDVK | GMHSGSVQH | ND ND ND ND ND ND | 0/18
GDNLDEYGIS | VIYADGQRTAYDDPVK | GGQTGHVMV | ND ND ND ND ND ND | 1/18 (2.37)
GDKLEDYGIS | VIYADGRRSYYVENVK | GEYAGYFDV | ND ND ND ND ND 3.22 | 0/18
GFDLQEYGVS | VIYADGARKSYTNSVK | GVVGGGMDV | ND ND ND ND ND ND | 1/18 (1.82)
GFNLDEYGIS | VIYADGQRTAYAKNVK | GTFGMKRVV | ND ND ND ND ND ND | 0/18
GFNLEEYGIS | VIYADGFRAAYKQKVK | GQDGLVGMD | ND ND ND ND ND ND | 0/18
GWNLDEYGIS | VIYADGQRTFYVNAVK | GSNGSGITV | ND ND ND ND ND ND | 0/18
GFDINEYGIS | VIYADGKRVEYNDKVK | GMLAGTFDQ | -0.06 1.10 0.25 ND 1.08 ND | 0/18
GFKLDEYGIS | VIYADGCRTAYADSFK | GKTTFSKFV | ND ND ND ND ND ND | 0/18

3 of these entries, quoted again:

| CDR-H1 | CDR-H2 | CDR-H3 | log10 Kd (nM) by replicate | empty controls |
|---|---|---|---|---|
| GFDINEYGIS | VIYADGKRVEYNDKVK | GMLAGTFDQ | -0.06 1.10 0.25 ND 1.08 ND | 0/18 |
| GFKLNEYGIS | VIYADGQRKSYADSFK | GRWTGQVIV | 0.94 1.08 1.97 0.86 0.10 0.98 | 0/18 |
| GFDLDEYGIS | VIYADGRRSAYHDSFK | GQLGKVSFV | ND ND ND ND ND ND | 0/18 |

Empty control strains, which show no peptide, gave a signal in 1% of pairings with all heavy chain designs; the median was 2.08 and 95% of these signals were weaker than 0.84. No background was subtracted. For each scFv, signals with the empty controls are counted beside the result, with their mean in brackets.
The range of this assay differs from that of the first round, and the authors advise against merging the two.
The authors averaged sequences with at least three values out of six and counted those with two or fewer as poor binders.